# AlphaSeq binding of Ab-14 light chain variants to a spike HR2 peptide

Values reported by Li et al. 2023, doi:10.1038/s41467-023-39022-2 (FLAb copy).

Target: peptide PDVDLGDISGINAS, taken from heptad repeat 2 (HR2) of SARS-CoV-2 spike.

The variants keep the heavy chain, the linker and the frameworks of Ab-14 (scFv order VH, three GGGGS repeats, VL).
VH: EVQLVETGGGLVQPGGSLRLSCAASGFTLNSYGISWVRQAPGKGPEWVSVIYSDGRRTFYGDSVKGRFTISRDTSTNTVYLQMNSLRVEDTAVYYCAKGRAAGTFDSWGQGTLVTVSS
VL: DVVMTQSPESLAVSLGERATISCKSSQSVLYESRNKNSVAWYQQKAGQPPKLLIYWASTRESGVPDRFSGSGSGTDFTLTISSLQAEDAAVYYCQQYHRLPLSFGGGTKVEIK

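The parent was found by panning a naive human phage display library on the peptide. The variants were designed computationally from a first round of random CDR variants and then made and measured. Group labels follow the data file (Ctrl: baseline library sampled from a position-specific scoring matrix, with some repeated check sequences; En: ensemble of fine-tuned language models; GP: Gaussian process model; HC: hill climbing; Gen: genetic algorithm; Gibbs: Gibbs sampling; a sequence that several methods proposed may carry one label only). The scFvs were displayed on barcoded MATa yeast, the peptide on MATalpha yeast. Pairs that bind mate more often; barcode pairs of the diploids are counted by sequencing. Scores were corrected for input abundance and mapped to Kd with protein pairs of known affinity run in the same pool. Each pool was mated in six replicate cultures.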

Each variant is given by its three light chain CDRs, as the data file delimits them; those of the parent are KSSQSVLYESRNKNSVA, WASTRES, QQYHRLPLS.
Variants here have more than six changes.
Kd is apparent (estimated from mating counts) and averaged on the log scale over replicates with a signal. Smaller is tighter.
A pair that was not seen in any replicate is written "nd"; this usually means weak binding, but a binder can also be missed.
Order: sorted from the lowest average up, undetected variants last.

CDR-L1,CDR-L2,CDR-L3,group,Kd (apparent),seen in,control signals
KLSGSVMMLSRNDNSVA,DASTRES,QQYHRLPLS,GP_Gibbs,550 pM,6/6,0/18
KIGMTLNQMMTKKNNVA,DLVERAN,QQYHRLPLS,En_Gen,600 pM,6/6,0/18
KISGSVMMLSRNKNSVA,EATTRES,QQYHRLPLS,GP_Gibbs,600 pM,6/6,0/18
ILDQSQLYESRNKNAVA,NASTREQ,QQYHRLPLS,GP_Gibbs,680 pM,6/6,0/18
ILSYSELYEDRNKNSVA,NASQREQ,QQYHRLPLS,GP_Gibbs,720 pM,6/6,1/18
TIGPMLMTESHNKNNVA,GMQTRER,QQYHRLPLS,En_HC,740 pM,6/6,0/18
KFQQSVLYESRNLNNVA,HGSTRSS,QDYHRLPLS,GP_Gibbs,800 pM,6/6,0/18
AISQSVLYESRNQNAVA,EASTRCD,QQYHRLPLS,GP_Gibbs,880 pM,6/6,1/18
KSDFSEPGESRNKNSVA,DASTRMS,QQYHRLPLS,GP_Gibbs,900 pM,6/6,0/18
KLSQMWLYESRNCNSVA,NASQREE,QQYHRLPLS,GP_Gibbs,960 pM,6/6,2/18
KVEQLVDPKDRNSNSVA,NASTRES,QQYHRLPLS,GP_Gibbs,1.0 nM,6/6,4/18
KIYQATAMTSSVRNNVA,DLNERER,QQYFRLPLS,En_HC,1.1 nM,6/6,2/18
KLSGSVCMLSRNDNSVA,DANTRES,QQYHRLPLS,GP_Gibbs,1.1 nM,6/6,0/18
KLGDMVHTESKNKNSIA,DMRTRES,QQYYRLPLS,En_HC,1.1 nM,6/6,0/18
KIGMTLNQLLHQKNNVA,DLVERET,QQYHRLPLS,En_Gen,1.1 nM,6/6,0/18
HLGGLMTWEEKARNSVA,QQTTRAE,QQYHRLPLS,En_HC,1.3 nM,6/6,2/18
KVFPSELGESRNKMSVA,DASTRES,QQYHRLPLS,GP_Gibbs,1.4 nM,6/6,0/18
KLSMSVWMWSRNKNSVA,SANTREE,QQYHRLPLS,GP_Gibbs,1.4 nM,6/6,0/18
KIGQQVTYESTNKNAIA,QMTTREE,QQYHHLPLS,En_HC,1.5 nM,6/6,4/18
QISGITGHQSMSKNNVA,EMVTREN,QQYDRLPLS,En_Gen,1.6 nM,6/6,0/18
KIGMTLNQLLHQKNNVA,DLVERED,QQYFRLPLS,En_Gen,1.6 nM,6/6,0/18
MISDLTMYGSRNKNSVA,DLSTRGS,QQYHRLPLS,En_HC,1.6 nM,6/6,0/18
MISDLTMYGSRNKNSVA,DLSTRGS,QQYDRLPLS,En_HC,2.3 nM,6/6,2/18
KVDISATVQGMHKSGVA,EHDMRVG,QQYFRLPLA,En_Gibbs,2.4 nM,6/6,0/18
IISQSVLGEYHNKNNVA,QTSERGQ,QQYDRLPLS,En_HC,2.5 nM,6/6,2/18
KFFGGIPEQERDDYSIA,KGTLREM,QQYQRLPLS,En_Gibbs,2.7 nM,6/6,1/18
MVNGIMDHLSKQTNNVA,EMTTREE,QQYERLPLS,En_Gen,3.0 nM,6/6,3/18
TISGLILMPSRNKNSVA,NTSTRYQ,QQYHRLPLS,En_HC,3.5 nM,6/6,0/18
TLWDWIQGGDWAKKNVA,DEQTRMV,QQYYRLPLS,En_Gibbs,3.9 nM,6/6,0/18
MISQVMNTLTRYGNNVA,DLQEREE,QQYFRLPLS,En_Gen,3.9 nM,6/6,1/18
HLSDTTMQGSYYRNSVA,QESTRAD,QQYHRLPLS,En_HC,4.0 nM,6/6,1/18
KITDDFLTEGNRRQNIA,HNNVACD,QQYQQLPLA,En_Gibbs,4.2 nM,6/6,2/18
TISQITTLFSQTTNNVA,EVSTREK,QQYDRLPLS,En_Gen,4.3 nM,6/6,2/18
KIMQSYLGEMRNCNSVA,NASTRES,QQYHRLPLS,GP_Gibbs,4.4 nM,6/6,0/18
MMSQVTALGQRHRNNVA,QTSTRED,QQYDHLPLI,En_Gen,4.7 nM,6/6,1/18
MISQLFNMGQFAINSVA,QASQRNE,QQYDRLPLM,En_Gen,5.1 nM,6/6,3/18
AVSIQHMENTAIWNAIA,DTSLRNH,QQYYHLPLS,En_Gibbs,5.4 nM,6/6,1/18
KLRVHNLMFYQNENSIA,GVSNRAY,QQYYHLPLN,En_Gibbs,5.8 nM,6/6,0/18
KITATMRFEQKQSNNIA,EVSQRSK,QQYYRLPLA,En_Gen,6.3 nM,6/6,0/18
KISQMVRVGSTLSNSIA,EEVTRAK,QQYHRLPLA,En_Gen,8.3 nM,6/6,0/18
MVYQAAMMGTSTRNSIA,NAEMRPD,QQYHRLPLI,En_Gen,8.5 nM,6/6,2/18
TVKMELEMFAQDKHSVA,EAVERES,QQYHRLPLG,En_Gibbs,9.3 nM,6/6,1/18
TISQLTSSFSQNINNVA,EVSTRLN,QQYDRLPLS,En_Gen,9.6 nM,5/6,0/18
KISMAYNFAQTNKNSIA,EMTTRES,QHYHRLPLS,En_HC,11 nM,6/6,1/18
IIDQIMYHGNKRANSIA,QASERVN,QQYHHLPLT,En_Gen,11 nM,6/6,0/18
KIRVQQYSQSEMESNIA,GESVRHQ,QQYFHLPLT,En_Gibbs,12 nM,6/6,0/18
MISMNIYGLYRNRDNVA,HGSMREN,QCYDRLPLS,En_Gen,13 nM,6/6,0/18
TISQMHFIESKNRNNVA,EMTTREN,QDYDRLPLS,En_HC,13 nM,6/6,2/18
KVSEFMRGLMMRTNSIA,DNNTRQN,QQYDRLPLS,En_Gen,14 nM,6/6,2/18
TISQLYNQATGMRNSVA,NNQTRTD,QQYFRLPLS,En_Gen,15 nM,6/6,0/18
TIGQTLMQGIRNRSNVA,EVSQRLN,QQYDRLPLV,En_Gen,17 nM,6/6,0/18
KLQQSEEYESRQFNSVA,EASQRNL,QQYHRLPLS,GP_Gibbs,19 nM,6/6,1/18
MFSQGVMVGWLTRNSVA,NSETRES,QQYDRLPLS,En_HC,20 nM,6/6,0/18
TLMEVGGYQLNQHNSIA,DLRTREN,QQYHRLPLS,En_HC,22 nM,6/6,1/18
HMSMLTLQGMRHRNSVA,QMTTREN,QQYDHLPLA,En_Gen,27 nM,6/6,1/18
QLSMITGHMSVSKNNVA,EMETRVN,QQYDRLPLS,En_Gen,28 nM,2/6,0/18
KVSEFMRGLMQKQDSIA,DNQTRNS,QQYDRLPLS,En_Gen,30 nM,6/6,0/18
IVSQLMLWGLHAKNSIA,EAVMRLN,QQYDRLPLE,En_Gen,31 nM,1/6,1/18
KLYDMAALTVNNIRNVA,DNDTREQ,QQYHRLPLS,En_Gen,31 nM,6/6,0/18
KVSEFMRGLMRRQDSIA,DNETRES,QQYDRLPLS,En_Gen,37 nM,6/6,3/18
KVSEFMRGLMMRKDNIA,DNNTRSN,QQYDRLPLS,En_Gen,40 nM,4/6,0/18
KISMITGHMSVSKNRVA,EMETREN,QQYDRLPLS,En_Gen,42 nM,6/6,1/18
KLDMFIPSQWEWDASIA,GTTLRNT,QDYARLPLS,En_Gibbs,44 nM,5/6,0/18
MISMNIYGAYRARDNVA,HASNRED,QCYDRLPLS,En_Gen,51 nM,5/6,0/18
MISQLYNMGTFAINSVA,QATIRNS,QQYDRLPLA,En_Gen,72 nM,5/6,2/18
IISGSMLMESRTKNSVA,NAETREY,QHYDRLPLS,En_HC,110 nM,3/6,0/18
MISQLFMYGLRNYNSVA,QASTRES,QQYDRLPLI,En_HC,120 nM,4/6,0/18
KISMMYRYEQQNSSSIA,EVTTRLN,QSYHRLPLS,En_HC,120 nM,6/6,0/18
WLSMSVMLESRNVNSVA,SASTREW,QQYHRLPLS,GP_Gibbs,250 nM,3/6,1/18
SFSHESEGSKNEEASIA,STETLMS,QDYARLPLA,En_Gibbs,270 nM,4/6,0/18
KLGQMTAIESRNLNSVA,QMDTREQ,QQYHRLPLS,En_HC,nd,0/6,0/18
KITFQMMSSNAHQYSIA,QTNVYSQ,QQYNRLPLD,En_Gibbs,nd,0/6,0/18
HIMKFMSQIGGARNNVA,GDTKLAQ,QHYHRLPLS,En_Gibbs,nd,0/6,2/18
KSSLSVLYGSHCKNSVA,KASTREE,QQYHQLPLS,Ctrl,nd,0/6,0/18
FIDGNYYDKYQASNSIA,DEAHIRA,QQYDLLPLS,En_Gibbs,nd,0/6,0/18

The first 4 entries again:

{"CDR-L1": "KLSGSVMMLSRNDNSVA", "CDR-L2": "DASTRES", "CDR-L3": "QQYHRLPLS", "group": "GP_Gibbs", "Kd (apparent)": "550 pM", "seen in": "6/6", "control signals": "0/18"}
{"CDR-L1": "KIGMTLNQMMTKKNNVA", "CDR-L2": "DLVERAN", "CDR-L3": "QQYHRLPLS", "group": "En_Gen", "Kd (apparent)": "600 pM", "seen in": "6/6", "control signals": "0/18"}
{"CDR-L1": "KISGSVMMLSRNKNSVA", "CDR-L2": "EATTRES", "CDR-L3": "QQYHRLPLS", "group": "GP_Gibbs", "Kd (apparent)": "600 pM", "seen in": "6/6", "control signals": "0/18"}
{"CDR-L1": "ILDQSQLYESRNKNAVA", "CDR-L2": "NASTREQ", "CDR-L3": "QQYHRLPLS", "group": "GP_Gibbs", "Kd (apparent)": "680 pM", "seen in": "6/6", "control signals": "0/18"}

Values of this round are not directly comparable with the first-round values of the same sequences.
In the paper, a design with two or fewer of six values counts as a poor binder.
Empty control strains, which show no peptide, gave a signal in 4% of pairings with all light chain designs; the median was 430 nM and 95% of these signals were weaker than 38 nM. No background was subtracted. For each scFv, signals with the empty controls are counted beside the result.